# Values of other authors, collected in patent US20130330412A1, “SMART POLYMERIC NANOPARTICLES WHICH OVERCOME MULTIDRUG RESISTANCE TO CANCER THERAPEUTICS AND TREATMENT-RELATED SYSTEMIC TOXICITY” (THE JOHNS HOPKINS UNIVERSITY, priority 2010, published 2013).
# Settings: combination therapy with doxorubicin, breast cancer patients; cited from earlier work
substance,measurement,value
Trastuzumab: monoclonal antibody against human epidermal growth factor-2; HER2,patients developing some form of cardiotoxicity,approximately 27%
